Test results taken from patent publication US20200368361A1 (Regeneron, published 2020).

Biological target: T1, mouse MSR1 on RAW264.7 cells (mouse, UniProt P30204 1-458)
T1 construct: whole, on cells
T1 sequence (looked up): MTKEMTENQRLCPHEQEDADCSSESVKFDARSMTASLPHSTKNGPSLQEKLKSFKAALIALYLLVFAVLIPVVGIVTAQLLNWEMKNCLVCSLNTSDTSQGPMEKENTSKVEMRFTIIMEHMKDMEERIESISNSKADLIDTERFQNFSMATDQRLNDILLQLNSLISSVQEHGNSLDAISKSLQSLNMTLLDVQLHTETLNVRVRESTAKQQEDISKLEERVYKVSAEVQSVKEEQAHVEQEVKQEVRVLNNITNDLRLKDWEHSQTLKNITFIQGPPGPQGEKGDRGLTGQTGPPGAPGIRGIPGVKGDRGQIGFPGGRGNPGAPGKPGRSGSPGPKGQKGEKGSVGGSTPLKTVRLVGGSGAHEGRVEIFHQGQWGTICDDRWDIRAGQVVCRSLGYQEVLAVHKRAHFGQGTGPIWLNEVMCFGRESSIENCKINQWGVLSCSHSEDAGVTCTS
Assay: flow cytometry, RAW264.7 cells, 10 ug/mL;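 further: antibodies bound to RAW264.7 cells for 30 min on ice after Fc block with mouse IgG, S/N is MFI relative to unstained cells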

B1: H1H27771P2-N297Q (antibody, human IgG1, V domains shown)
VH: EVQLVESGGGLVQPGGSLRLSCAASGFTFSSYGMNWVRQAPGKGLEWVSVISGSGGSTYYADSVKGRFTISRDNSKNTLYLQMNSLRAEDTAVYYCAKDRWTYYYDSSGSPFDYWGQGTLVTVSS
VL: not shown
notes: human IgG1 Fc with N297Q; also called H1H27771P-N297Q
- MFI: 4060
